The record followed here is article PMC11257449 (bioRxiv, 2024).

Chains of the proteins cited; added tags and fusions are not shown. Residues count along the entry.
UniProt P00811, 20-377: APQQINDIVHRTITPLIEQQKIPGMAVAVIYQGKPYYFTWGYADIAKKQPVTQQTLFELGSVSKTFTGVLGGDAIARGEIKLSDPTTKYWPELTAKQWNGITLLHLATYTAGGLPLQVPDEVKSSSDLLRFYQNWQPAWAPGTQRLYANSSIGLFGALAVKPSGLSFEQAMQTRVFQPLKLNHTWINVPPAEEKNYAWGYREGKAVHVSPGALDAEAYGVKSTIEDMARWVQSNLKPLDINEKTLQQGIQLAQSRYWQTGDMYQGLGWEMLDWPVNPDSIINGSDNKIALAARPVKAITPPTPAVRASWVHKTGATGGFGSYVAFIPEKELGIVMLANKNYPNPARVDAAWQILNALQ

The experiment has as its target AmpC β-lactamase (Escherichia coli, UniProt P00811). It counts as biochemical. The conditions noted are these: read-out: affinity (Ki) for AmpC.

On to `COC(=O)c1ccc(CNC(=O)c2c(C)o[nH]c2=O)cc1OC` [Z6615146331], for which the Ki (commonly the dissociation constant of the complex between target and ligand, obtained from inhibition or displacement) turned out to be 36 µM.
